Earlier results, collected in article PMC3346155 (Drug Design, Development and Therapy, 2012).

Settings: cited from earlier work

Question: With Octreotide [reference compound] as the substance, how does the “mean t½” value read?
Answer: approximately 1.7 hours
